Reference: ChEMBL document CHEMBL1156829 (Proc Natl Acad Sci U S A, 2008)

Tested on: Huh-7
Experiment: NOVARTIS: Cytotoxicity against human hepatocellular carcinoma cell line (Huh7)
Assay type: toxicity, cell-based

| SMILES | CC50 [µM] |
| --- | --- |
| O=[N+]([O-])c1ccc(NCCN(CCO)c2ccc([N+](=O)[O-])cc2[N+](=O)[O-])c(Cl)c1 | 36.1 |
| Cc1nc(Nc2cccc([N+](=O)[O-])c2)nc(Nc2cccc([N+](=O)[O-])c2)c1[N+](=O)[O-] | > 100 |
